Assay results reported in ChEMBL document CHEMBL1127468, “A marked change of receptor affinity of the 2-methyl-5-(3-hydroxyphenyl)morphans upon attachment of an (E)-8-benzylidene moiety: synthesis and evaluation of a new class of sigma receptor ligands” (J Med Chem, 1994).

Assay: Ratio of Ki values tested against sigma receptor and Mu receptor

First: CN1CC[C@@]2(c3cccc(O)c3)CC(=O)/C(=C/c3ccc(Cl)c(Cl)c3)[C@H]1C2
Second: CN1CC[C@@]2(c3cccc(O)c3)CC(=O)/C(=C/c3ccc(Cl)c(Cl)c3)[C@@H]1C2
The Ratio of the first is higher: 7.2 for the first, 0.71 for the second.

CN1CCC2(c3cccc(O)c3)CC(=O)/C(=C/c3ccc(Cl)c(Cl)c3)C1C2 (stereo not drawn) gave a Ratio of 11.
